Values of other authors in patent publication US7022306B1, “Process for the production of hydrogen” (UOP LLC, priority 2003, dated 2006).

System: Rat

## Butanol
  Toxicity LD50 (mg/kg) Oral-Rat: 790 mg/kg
